Measurements published in patent US20240327331A1, “ESTERS OF 7-COOH CBD DERIVATIVES AND THEIR USE AS PREVENTION, PROPHYLAXIS OF PROGRESSION, AND/OR TREATMENT OF NEUROGENERATIVE DISEASES” (Receptor Pharma INC, priority 2021, published 2024).
Where two headings read alike, the source gives them in different places.

Amino acid sequences for entries named in this document (tags omitted). A change or cut given only in a name is not applied to a line headed by its entry.
UniProt P46089: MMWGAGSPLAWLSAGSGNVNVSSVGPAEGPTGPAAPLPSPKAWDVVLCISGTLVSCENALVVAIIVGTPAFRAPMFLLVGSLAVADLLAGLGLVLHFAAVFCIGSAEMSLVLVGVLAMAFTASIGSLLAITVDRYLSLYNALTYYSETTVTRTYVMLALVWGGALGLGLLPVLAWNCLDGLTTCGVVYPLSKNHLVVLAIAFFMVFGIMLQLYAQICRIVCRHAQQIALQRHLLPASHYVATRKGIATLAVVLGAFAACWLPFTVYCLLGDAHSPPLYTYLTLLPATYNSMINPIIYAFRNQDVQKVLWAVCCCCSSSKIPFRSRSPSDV

Biological target: GPR3 receptor (Homo sapiens, UniProt P46089)
Test: PathHunter β-arrestin2 recruitment assay in CHO-K1 cells expressing GPR3-PK
Format: cell-based
Design: host or cells: CHO-K1 (PathHunter eXpress kit)
From the text: The PathHunter™ eXpress kits containing Chinese hamster ovary (CHO)-K1 cells co-expressing EA-O-arrestin2 human and GPR3-PK were purchased from DiscoverX (Fremont, CA). All cannabinoid ligands were purchased from BDG Synthesis (Wellington, New Zealand).
PathHunter™ eXpress kits were used to measure GPR3-mediated β-arrestin2 recruitment following manufacturer's instructions. In this system, Chinese hamster ovary (CHO)-K1 cell line are stably expressing the GPR3 receptors which were fused to a “ProLink (PK)” fragment of βi-galactosidase to form GPR3-PK. The remaining sequence of β-galactosidase enzyme acceptor (EA) was linked to β-arrestin2 to form EA-β-arrestin2. Recruitment of Si-arrestin2 by receptor activation causes complementation of the two enzyme fragments. Levels of the active enzyme are the direct result of β-arrestin2 recruitment caused by receptor activation and quantified using the PathHunter detection reagent containing β-galactosidase substrates. […] Luminescence signal was then detected using a TECAN GENios Pro microplate reader.
Ligand-induced changes in R-arrestin2 recruitment to GPR3 were expressed as percent basal relative luminescence units, which was calculated by dividing luminescence readings in the presence of ligands by basal luminescence readings, times 100. […] Data were analyzed using one-way analysis of variance (ANOVA) followed by NewmanKeuls post-test. […]

Substance: SR144528
- IC50 (cells incubated with 10 μM 7-COOH-CBD, FIG. 2, read-out: IC50 of SR144528 in competition experiment): 200 µM
- IC50 (read-out: IC50 as GPR3 inverse agonist, SR144528 alone): 16 µM
